Among the data in patent US6511998B2, “Pyrazole carboxamides useful for the treatment of obesity and other disorders” (priority 1999, dated 2003) are IC50 values, retold here.

Amino acid sequences for entries named in this document (tags omitted).
UniProt Q15761, whole entry: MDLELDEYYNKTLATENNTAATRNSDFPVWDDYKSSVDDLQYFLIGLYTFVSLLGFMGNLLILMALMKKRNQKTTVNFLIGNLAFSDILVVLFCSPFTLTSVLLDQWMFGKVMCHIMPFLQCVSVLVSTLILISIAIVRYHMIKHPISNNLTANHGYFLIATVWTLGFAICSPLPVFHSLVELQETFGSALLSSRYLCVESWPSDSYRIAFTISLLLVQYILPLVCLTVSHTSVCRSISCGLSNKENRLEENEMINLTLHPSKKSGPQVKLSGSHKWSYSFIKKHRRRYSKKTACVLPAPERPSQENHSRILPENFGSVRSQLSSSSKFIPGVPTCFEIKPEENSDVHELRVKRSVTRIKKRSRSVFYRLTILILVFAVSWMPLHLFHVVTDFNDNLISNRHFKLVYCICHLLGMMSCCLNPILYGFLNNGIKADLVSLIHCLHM

The assay concerns the target human neuropeptide Y5 receptor (Homo sapiens, UniProt Q15761). Briefly: NPY5 HTS centrifugation assay: competition with 125I-PYY for binding to membranes of NPY5-transfected HEK-293 cells. As to conditions: read-out: IC50 HNPY5r; inhibition of 125I-PYY binding; values given in μM.

The IC50 is the midpoint of a concentration-inhibition curve. In the case of `Cc1cc(C(=O)Nc2ccccc2-c2cc3ccccc3[nH]2)nn1-c1cccc(C(F)(F)F)c1`, the IC50 was 5 µM.
